Source: patent US5858684A, “Method of screening calcium receptor-active molecules” (priority 1995, dated 1999)

Test system: cyclic AMP formation in bovine parathyroid cells
Assay type: cell-based

In the case of `NCCCNCCCCNCCCN` [Spermine, spermine], the “isoproterenol-induced cyclic AMP” value is reported as “depressed isoproterenol-induced increases”.
